The values below are quoted from earlier work in patent publication US20110217355A1, “CONTACT LENS BASED BIOACTIVE AGENT DELIVERY SYSTEM” (priority 2007, published 2011).

The subject of this data set is ocular surface. Particulars: cited from earlier work.

Take POE (20) stearyl ether [Brij 78]: under “concentrations as large as 2% (w/w)”, the “toxicity in ocular studies” value is on record as “negligible toxicity”. Besides, the “toxic effects on the ocular surface” value (rabbits, 0.1 ml of 0.2% (20000 μg/ml) eye drops) is on record as “does not cause toxic effects”.
